By UniProt entry, the sequences of proteins in these tests, tags left out.
UniProt P23977, whole entry: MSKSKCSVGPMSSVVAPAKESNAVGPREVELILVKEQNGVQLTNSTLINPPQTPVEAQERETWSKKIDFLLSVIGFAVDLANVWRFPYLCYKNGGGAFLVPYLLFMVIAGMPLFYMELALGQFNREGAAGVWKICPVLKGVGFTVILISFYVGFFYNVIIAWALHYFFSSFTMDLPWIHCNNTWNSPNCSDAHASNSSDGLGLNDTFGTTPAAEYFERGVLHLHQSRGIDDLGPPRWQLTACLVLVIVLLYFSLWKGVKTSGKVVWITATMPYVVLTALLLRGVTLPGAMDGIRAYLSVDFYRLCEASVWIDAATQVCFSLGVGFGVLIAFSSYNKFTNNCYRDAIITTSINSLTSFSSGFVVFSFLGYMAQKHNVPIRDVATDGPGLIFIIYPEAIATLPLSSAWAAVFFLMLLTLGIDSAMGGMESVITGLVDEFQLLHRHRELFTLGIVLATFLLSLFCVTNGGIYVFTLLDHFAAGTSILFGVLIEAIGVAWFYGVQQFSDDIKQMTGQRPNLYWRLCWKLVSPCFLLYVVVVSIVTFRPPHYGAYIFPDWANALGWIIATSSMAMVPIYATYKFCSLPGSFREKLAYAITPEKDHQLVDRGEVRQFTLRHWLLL

In US9873702B2, “Heterocyclic compounds as biogenic amine transport modulators” (Southern Research Institute, priority 2014, dated 2018):

Target: dopamine transporter (DAT) (Rattus norvegicus, UniProt P23977)
Assay: Dopamine reuptake ([^3H]dopamine uptake) inhibition in rat brain synaptosomes
Settings: rat caudate synaptosomes, 5 nM [^3H]dopamine

Cc1cc2nccn2c(C)c1-c1nc(NCC(c2ccccc2)c2ccccc2)c2ccccc2n1
DA Uptake Emax (% I ± SD) (maximal inhibition from dose-response fit): 106 ± 4 % I | EC50 (read-out: DA Uptake EC50 (nM ± SD), 15 min, 25° C., three experiments pooled): 543 nM
